Measurements from patent US10273227B2, “C5-anilinoquinazoline compounds and their use in treating cancer” (AstraZeneca AB, priority 2017, dated 2019).

By UniProt entry, the sequences of proteins in these tests, tags left out. Chains listed by the source or under a name are the forms on record and can include a tag or linker.
UniProt P10721, with tags, fused parts or gaps D816H/DEL557-558 limits assumed: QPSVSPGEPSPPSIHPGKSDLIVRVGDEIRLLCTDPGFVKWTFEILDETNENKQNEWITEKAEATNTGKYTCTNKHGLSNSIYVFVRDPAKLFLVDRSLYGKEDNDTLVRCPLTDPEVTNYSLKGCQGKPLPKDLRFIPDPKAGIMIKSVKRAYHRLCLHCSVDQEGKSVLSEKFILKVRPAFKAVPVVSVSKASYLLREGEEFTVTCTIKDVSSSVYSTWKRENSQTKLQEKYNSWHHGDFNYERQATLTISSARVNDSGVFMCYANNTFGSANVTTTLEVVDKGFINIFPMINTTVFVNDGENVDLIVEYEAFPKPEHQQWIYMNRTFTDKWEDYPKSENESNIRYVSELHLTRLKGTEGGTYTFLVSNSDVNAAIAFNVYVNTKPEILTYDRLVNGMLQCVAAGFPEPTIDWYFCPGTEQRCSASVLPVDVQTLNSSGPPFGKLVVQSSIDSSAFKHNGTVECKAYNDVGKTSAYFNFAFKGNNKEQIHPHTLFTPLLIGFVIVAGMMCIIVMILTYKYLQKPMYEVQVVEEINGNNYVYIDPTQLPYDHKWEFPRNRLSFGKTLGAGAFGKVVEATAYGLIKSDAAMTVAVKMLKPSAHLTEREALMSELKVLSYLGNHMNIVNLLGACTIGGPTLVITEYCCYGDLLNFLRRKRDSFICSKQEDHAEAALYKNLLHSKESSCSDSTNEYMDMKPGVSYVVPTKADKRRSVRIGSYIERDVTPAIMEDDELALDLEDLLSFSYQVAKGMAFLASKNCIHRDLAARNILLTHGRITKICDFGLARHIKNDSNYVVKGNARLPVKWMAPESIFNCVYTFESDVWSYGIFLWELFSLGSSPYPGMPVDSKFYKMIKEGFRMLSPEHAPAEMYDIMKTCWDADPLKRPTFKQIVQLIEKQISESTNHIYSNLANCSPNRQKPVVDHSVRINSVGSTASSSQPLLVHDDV
UniProt P10721, with tags, fused parts or gaps DEL557-558/T670I limits assumed: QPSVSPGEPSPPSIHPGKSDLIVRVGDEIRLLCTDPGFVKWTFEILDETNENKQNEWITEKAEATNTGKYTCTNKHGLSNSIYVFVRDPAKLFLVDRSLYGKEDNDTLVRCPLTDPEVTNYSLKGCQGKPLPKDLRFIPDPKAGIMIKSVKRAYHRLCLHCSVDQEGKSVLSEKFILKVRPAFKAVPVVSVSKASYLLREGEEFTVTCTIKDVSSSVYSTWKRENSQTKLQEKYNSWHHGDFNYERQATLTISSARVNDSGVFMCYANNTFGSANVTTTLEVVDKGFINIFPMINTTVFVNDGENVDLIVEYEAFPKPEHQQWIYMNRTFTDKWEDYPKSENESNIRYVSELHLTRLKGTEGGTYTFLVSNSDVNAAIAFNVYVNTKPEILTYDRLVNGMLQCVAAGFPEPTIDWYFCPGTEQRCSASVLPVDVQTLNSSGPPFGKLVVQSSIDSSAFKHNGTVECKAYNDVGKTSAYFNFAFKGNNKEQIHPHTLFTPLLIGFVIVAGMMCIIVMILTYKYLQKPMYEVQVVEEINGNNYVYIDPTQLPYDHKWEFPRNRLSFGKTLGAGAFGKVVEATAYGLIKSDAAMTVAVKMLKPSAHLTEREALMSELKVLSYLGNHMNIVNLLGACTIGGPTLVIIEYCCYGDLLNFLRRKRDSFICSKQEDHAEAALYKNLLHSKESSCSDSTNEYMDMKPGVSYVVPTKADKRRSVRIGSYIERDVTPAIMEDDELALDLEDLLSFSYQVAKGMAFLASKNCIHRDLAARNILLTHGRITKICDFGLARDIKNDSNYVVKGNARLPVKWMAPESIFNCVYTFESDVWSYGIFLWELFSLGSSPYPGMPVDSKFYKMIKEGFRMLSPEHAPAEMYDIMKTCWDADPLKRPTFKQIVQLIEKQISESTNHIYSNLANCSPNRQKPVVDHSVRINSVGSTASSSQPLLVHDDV
UniProt P10721, with tags, fused parts or gaps DEL557-558/V654A limits assumed: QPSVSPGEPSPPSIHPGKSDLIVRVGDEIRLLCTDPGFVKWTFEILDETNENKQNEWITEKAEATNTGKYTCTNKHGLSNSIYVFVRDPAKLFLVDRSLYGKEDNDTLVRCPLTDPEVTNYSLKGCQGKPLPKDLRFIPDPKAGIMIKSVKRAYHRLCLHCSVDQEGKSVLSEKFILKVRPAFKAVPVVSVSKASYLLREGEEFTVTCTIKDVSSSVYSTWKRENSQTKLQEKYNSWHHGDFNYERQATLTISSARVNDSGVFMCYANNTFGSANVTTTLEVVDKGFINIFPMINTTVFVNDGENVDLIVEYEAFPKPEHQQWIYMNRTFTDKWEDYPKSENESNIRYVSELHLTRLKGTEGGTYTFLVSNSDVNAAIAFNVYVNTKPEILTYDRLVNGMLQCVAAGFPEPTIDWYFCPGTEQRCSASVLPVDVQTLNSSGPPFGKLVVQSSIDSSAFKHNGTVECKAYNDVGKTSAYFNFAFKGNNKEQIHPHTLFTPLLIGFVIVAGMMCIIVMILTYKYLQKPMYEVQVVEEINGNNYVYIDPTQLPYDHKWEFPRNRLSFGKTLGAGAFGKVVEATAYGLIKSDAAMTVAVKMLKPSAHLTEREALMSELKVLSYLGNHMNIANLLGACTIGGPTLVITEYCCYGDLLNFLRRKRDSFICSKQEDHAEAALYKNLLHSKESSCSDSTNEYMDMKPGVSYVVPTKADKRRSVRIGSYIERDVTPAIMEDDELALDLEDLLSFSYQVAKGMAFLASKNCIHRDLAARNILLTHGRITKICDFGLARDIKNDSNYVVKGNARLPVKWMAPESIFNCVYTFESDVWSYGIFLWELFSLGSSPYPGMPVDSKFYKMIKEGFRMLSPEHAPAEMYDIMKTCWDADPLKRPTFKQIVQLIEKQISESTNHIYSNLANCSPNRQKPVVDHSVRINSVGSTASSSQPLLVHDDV

Legend:
[1] = target: Ba/F3-T670I (KIT exon11 deletion (557-558) and secondary mutation T670I) (Homo sapiens, UniProt P10721, DEL557-558/T670I); test: MTS viability assay, Ba/F3 expressing KIT exon11 deletion (557-558) and T670I; conditions: read-out: Ba/F3-T670I GI50, 72 h incubation, top concentration 10 uM
[2] = target: Ba/F3-V654A (KIT exon11 deletion (557-558) and secondary mutation V654A) (Homo sapiens, UniProt P10721, DEL557-558/V654A); test: MTS viability assay, Ba/F3 expressing KIT exon11 deletion (557-558) and V654A; conditions: read-out: Ba/F3-V654A GI50, 72 h incubation, top concentration 10 uM
Ba/F3-Parental = test: MTS viability assay, Ba/F3 parental cells; conditions: read-out: Ba/F3-Parental GI50, 72 h incubation, top concentration 10 uM
Experimental: Exponentially grown Ba/F3 cells (1.5×10^6 cells in 2 ml medium) were infected with 2 ml of viral suspension in a 6-well plate in the presence of mIL-3 (10 ng/ml) and polybrene (4 μg/ml) (Sigma Aldrich, St. Louis, Mo.) and incubated for 24 h. After 24 h, the cells were centrifuged and the viral supernatant was discarded. The cells were then re-suspended in fresh medium and allowed to recover for another day. The following day, the cells were seeded in complete medium without murine IL-3. After a week or two, when cells started proliferating, a selection was carried out by gradually increasing the puromycin concentration to 0.5 ug/ml. […]
(§1) The impact of KIT inhibitors on the viability of Ba/F3 expressing KIT mutations was determined using an MTS assay, which is a colorimetric sensitive quantification of viable cells in proliferation and cytotoxicity assay. […] After 72 h, MTS reagent was added to the plates and incubated an additional 2 h at 37° C. before measuring the absorbance at 490 nm on a Tecan microplate reader using Magellan Software (Tecan Trading AG, Switzerland).
(§2) The absorbances were normalized as follows: (Read-Day0 control)/(Day3 control−Day0 control)*100. […] The GI50 values reported below are the calculated mean result of at least 3 biological replicates across all the cell lines tested.

[3] = target: Ba/F3-D816H (KIT exon11 deletion (557-558) and secondary mutation D816H) (Homo sapiens, UniProt P10721, D816H/DEL557-558); test: MTS viability assay, Ba/F3 expressing KIT exon11 deletion (557-558) and D816H; conditions: read-out: Ba/F3-D816H GI50, 72 h incubation, top concentration 10 uM
[4] = tested on: TEL-KDR (KDR (K790-V1356) fused to the C-terminus of Tel); test: MTS viability assay, Ba/F3 expressing Tel-KDR; conditions: read-out: TEL-KDR GI50, 72 h incubation, top concentration 10 uM
Experimental: Tel-KDR myc was cloned into pBCS2004, a retroviral vector, wherein KDR (K790-V1356) is fused to the C-terminus of Tel. Retroviral particles were generated in HEK293T cells. The Tel-KDR plasmid was co-transfected with helper viruses (gag-Pol and VSV-G) into HEK293T cells using calcium phosphate and the virus was harvested 72 h after transfection.
Exponentially grown Ba/F3 cells (1.5×10^6 cells in 2 ml medium) were infected with 2 ml of viral suspension in a 6-well plate in the presence of mIL-3 (10 ng/ml) and polybrene (4 μg/ml) (Sigma Aldrich, St. Louis, Mo.) and incubated for 24 h. After 24 h, the cells were centrifuged and the viral supernatant was discarded. […]
as §1, §2

SMILES | GI50 [1] | GI50 [2] | GI50 (Ba/F3-Parental) | GI50 [3] | GI50 [4]
CCOc1cc(OC2CCOC2)cc2ncnc(Nc3ccc(NC(=O)Cn4cc(C(C)C)nn4)cc3)c12 (single isomer, unassigned) [Example 3] | 0.061 µM | 0.011 µM | 1.47 µM | 0.042 µM | 1.84 µM
CCOc1cc(OC2CCOC2)cc2ncnc(Nc3ccc(NC(=O)Cn4cc(C(C)C)nn4)cc3)c12 (single isomer, unassigned) [Example 4] | 0.049 µM | 0.012 µM | 1.72 µM | 0.045 µM | 2.22 µM
